Measured values taken from doi:10.1101/2024.10.11.617496.
pKd: −log10 of the molar value.

By UniProt entry, the sequences of proteins in these tests, tags left out. Residues count along the entry.
UniProt P16234, 24-528: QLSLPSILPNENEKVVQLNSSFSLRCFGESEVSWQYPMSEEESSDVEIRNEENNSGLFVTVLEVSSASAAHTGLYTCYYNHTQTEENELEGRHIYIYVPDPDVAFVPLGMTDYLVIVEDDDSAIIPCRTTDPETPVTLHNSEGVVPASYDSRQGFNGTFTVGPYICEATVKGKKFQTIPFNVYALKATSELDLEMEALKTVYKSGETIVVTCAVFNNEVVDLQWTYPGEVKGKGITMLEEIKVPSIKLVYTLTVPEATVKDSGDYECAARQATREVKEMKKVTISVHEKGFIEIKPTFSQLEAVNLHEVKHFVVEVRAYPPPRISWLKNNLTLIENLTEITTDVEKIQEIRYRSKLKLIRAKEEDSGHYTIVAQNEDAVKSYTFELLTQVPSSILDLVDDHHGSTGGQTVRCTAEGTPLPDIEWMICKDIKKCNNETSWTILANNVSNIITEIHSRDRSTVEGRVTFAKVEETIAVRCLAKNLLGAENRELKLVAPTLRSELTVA

Experiments:
Assay in all cases: SPR
ALK-2 = target: ALK-2
ALK-3 = target: ALK-3
FCRL5 = target: FCRL5
NRP1 = target: NRP1
[1] = target: Platelet-derived growth factor receptor ɑ (PDGFRɑ), biotinylated receptor ectodomain (UniProt P16234)
α-CTX = target: α-CTX

For ALK-2bp, the pKd (ALK-2) was 6.79.
Substance ALK-3bp has a pKd (ALK-3) of 9.28.
For FCRL5bp, the pKd (FCRL5) was 7.09.
In the case of NRP1bp, the pKd (NRP1) was 7.08.
PDGFRαbp-7LBF was tested, and the pKd [1] was 8.40.
α-CTXbp showed a pKd (α-CTX) of 8.72.
